{
  "source": "patent US9814918B2",
  "about": "“Microbial deactivation of explosive compositions” (dated 2017)",
  "key": {"mixed soil culture": {"test_system": "mixed soil culture", "conditions": "24 h in Luria Broth, 1% w/v soil slurry, 0.5 mM GTN, PETN, TNT, NEM, 0.25 mM MD, 1 mM DMFU, 4 mM DEME, 1 mM 3HC, TPBO, TBHQ, DMME; for nitroglycerin-degrading activity of cell-free extract: NADPH"}, "[1]": {"test_system": "Agrobacterium tumifaciens AGL-1", "assay": "Induction of nitroglycerin-degrading activity in Agrobacterium tumifaciens AGL-1", "conditions": "24 h in Luria Broth, 0.25 mM NEM, 0.125 mM MD, 1 mM DMFU, 4 mM DEME, DEMO, DMMO, 0.5 mM GTN, PETN, TNT; for nitroglycerin-degrading activity of cell-free extract: NADH"}, "Pseudomonas sp. BB13": {"test_system": "Pseudomonas sp. BB13", "assay": "Induction of nitroglycerin-degrading activity in Pseudomonas sp. BB13", "conditions": "24 h in Luria Broth, 0.25 mM NEM, 0.5 mM MD, 1 mM DMFU, 4 mM DEME, DEMO, DMMO, 0.5 mM GTN, PETN, TNT; for nitroglycerin-degrading activity of cell-free extract: NADPH"}, "Escherichia coli DH5α [2]": {"test_system": "Escherichia coli DH5α", "conditions": "24 h in Luria Broth, 0.25 mM NEM, 0.25 mM MD, 1 mM DMFU, 4 mM DEME, DEMO, DMMO, 0.5 mM GTN, PETN, TNT; for nitroglycerin-degrading activity of cell-free extract: NADPH"}, "Escherichia coli DH5α [3]": {"test_system": "Escherichia coli DH5α", "assay": "Induction of nitroglycerin-degrading activity in Escherichia coli DH5α with different dose rates of inducers", "conditions": "for course of nitroglycerin-degrading activity with increasing inducer concentration: DMFU 0.01-1 mM, DEME 0.1-4 mM, 3HC 0.25-4 mM, TBHQ 0.5-4 mM, DMME 0.5-4 mM, TPBO 0.5-4 mM"}, "[4]": {"conditions": "highest concentrations tested (1 mM DMFU, 4 mM DEME), 24 h"}},
  "data": [
    {"smiles": "COC(=O)CC(=O)OC", "values": [
      {"measurement": "Fold-Induction relative to the control", "setting": "mixed soil culture", "value": 0.55, "unit": "fold"},
      {"measurement": "nitroglycerin-degrading activity of cell-free extract", "setting": "mixed soil culture", "value": 0.33, "unit": "U/g"},
      {"measurement": "nitroglycerin-degrading activity of cell-free extract", "setting": "[1]", "value": 1.1, "unit": "U/g"},
      {"measurement": "nitroglycerin-degrading activity of cell-free extract", "setting": "Pseudomonas sp. BB13", "value": 0.15, "unit": "U/g"},
      {"measurement": "nitroglycerin-degrading activity of cell-free extract", "setting": "Escherichia coli DH5α [2]", "value": 3.1, "unit": "U/g"}
    ]},
    {"smiles": "COC(=O)/C=C/C(=O)OC", "values": [
      {"measurement": "Fold-Induction relative to the control", "setting": "mixed soil culture", "value": 2.4, "unit": "fold"},
      {"measurement": "nitroglycerin-degrading activity of cell-free extract", "setting": "mixed soil culture", "value": 1.5, "unit": "U/g"},
      {"measurement": "Fold-Induction relative to the control", "setting": "[1]", "value": 4.0, "unit": "fold"},
      {"measurement": "nitroglycerin-degrading activity of cell-free extract", "setting": "[1]", "value": 2.4, "unit": "U/g"},
      {"measurement": "Fold-Induction relative to the control", "setting": "Pseudomonas sp. BB13", "value": 10, "unit": "fold"},
      {"measurement": "nitroglycerin-degrading activity of cell-free extract", "setting": "Pseudomonas sp. BB13", "value": 1.0, "unit": "U/g"},
      {"measurement": "increase in enzyme activity relative to the control", "setting": "Escherichia coli DH5α [3]; 0.01 mM DMFU, 24 h", "value": 2.2, "unit": "fold"},
      {"measurement": "course of nitroglycerin-degrading activity with increasing inducer concentration", "setting": "Escherichia coli DH5α [3]; 24 h", "value": "increase in nitroglycerin-degrading activity with increasing concentrations"},
      {"measurement": "increase in enzyme activity relative to the control", "setting": "Escherichia coli DH5α [3]; [4]", "value": 13, "unit": "fold"},
      {"measurement": "Fold-Induction relative to the control", "setting": "Escherichia coli DH5α [2]", "value": 12, "unit": "fold"},
      {"measurement": "nitroglycerin-degrading activity of cell-free extract", "setting": "Escherichia coli DH5α [2]", "value": 38, "unit": "U/g"}
    ]},
    {"smiles": "CC(=O)/C=C/c1ccccc1", "values": [
      {"measurement": "Fold-Induction relative to the control", "setting": "mixed soil culture", "value": 3.0, "unit": "fold"},
      {"measurement": "nitroglycerin-degrading activity of cell-free extract", "setting": "mixed soil culture", "value": 1.8, "unit": "U/g"},
      {"measurement": "course of nitroglycerin-degrading activity with increasing inducer concentration", "setting": "Escherichia coli DH5α [3]; 24 h", "value": "increase in nitroglycerin-degrading activity with increasing concentrations"},
      {"measurement": "increase in enzyme activity", "setting": "Escherichia coli DH5α [3]; dose rate of 4 mM TPBO, 24 h", "value": 97, "unit": "fold"}
    ]},
    {"smiles": "CCN1C(=O)C=CC1=O", "values": [
      {"measurement": "Fold-Induction relative to the control", "setting": "mixed soil culture", "value": 2.0, "unit": "fold"},
      {"measurement": "nitroglycerin-degrading activity of cell-free extract", "setting": "mixed soil culture", "value": 1.2, "unit": "U/g"},
      {"measurement": "Fold-Induction relative to the control", "setting": "[1]", "value": 1.2, "unit": "fold"},
      {"measurement": "nitroglycerin-degrading activity of cell-free extract", "setting": "[1]", "value": 0.72, "unit": "U/g"},
      {"measurement": "Fold-Induction relative to the control", "setting": "Pseudomonas sp. BB13", "value": 2.7, "unit": "fold"},
      {"measurement": "nitroglycerin-degrading activity of cell-free extract", "setting": "Pseudomonas sp. BB13", "value": 0.27, "unit": "U/g"},
      {"measurement": "Fold-Induction relative to the control", "setting": "Escherichia coli DH5α [2]", "value": 1.1, "unit": "fold"},
      {"measurement": "nitroglycerin-degrading activity of cell-free extract", "setting": "Escherichia coli DH5α [2]", "value": 3.7, "unit": "U/g"}
    ]},
    {"smiles": "CCOC(=O)/C=C\\C(=O)OCC", "values": [
      {"measurement": "Fold-Induction relative to the control", "setting": "mixed soil culture", "value": 2.1, "unit": "fold"},
      {"measurement": "nitroglycerin-degrading activity of cell-free extract", "setting": "mixed soil culture", "value": 1.3, "unit": "U/g"},
      {"measurement": "Fold-Induction relative to the control", "setting": "[1]", "value": 9.9, "unit": "fold"},
      {"measurement": "nitroglycerin-degrading activity of cell-free extract", "setting": "[1]", "value": 5.9, "unit": "U/g"},
      {"measurement": "Fold-Induction relative to the control", "setting": "Pseudomonas sp. BB13", "value": 13, "unit": "fold"},
      {"measurement": "nitroglycerin-degrading activity of cell-free extract", "setting": "Pseudomonas sp. BB13", "value": 1.3, "unit": "U/g"},
      {"measurement": "increase in enzyme activity relative to the control", "setting": "Escherichia coli DH5α [3]; 0.1 mM DEME, 24 h", "value": 2.8, "unit": "fold"},
      {"measurement": "course of nitroglycerin-degrading activity with increasing inducer concentration", "setting": "Escherichia coli DH5α [3]; 24 h", "value": "increase in nitroglycerin-degrading activity with increasing concentrations"},
      {"measurement": "increase in enzyme activity relative to the control", "setting": "Escherichia coli DH5α [3]; [4]", "value": 11, "unit": "fold"},
      {"measurement": "Fold-Induction relative to the control", "setting": "Escherichia coli DH5α [2]", "value": 22, "unit": "fold"},
      {"measurement": "nitroglycerin-degrading activity of cell-free extract", "setting": "Escherichia coli DH5α [2]", "value": 72, "unit": "U/g"}
    ]},
    {"smiles": "O=c1oc2ccccc2cc1O", "values": [
      {"measurement": "Fold-Induction relative to the control", "setting": "mixed soil culture", "value": 0.44, "unit": "fold"},
      {"measurement": "nitroglycerin-degrading activity of cell-free extract", "setting": "mixed soil culture", "value": 0.27, "unit": "U/g"},
      {"measurement": "course of nitroglycerin-degrading activity with increasing inducer concentration", "setting": "Escherichia coli DH5α [3]; 24 h", "value": "rise and fall in activity as concentrations increased"}
    ]},
    {"smiles": "CC(C)(C)c1cc(O)ccc1O", "values": [
      {"measurement": "Fold-Induction relative to the control", "setting": "mixed soil culture", "value": 0.8, "unit": "fold"},
      {"measurement": "nitroglycerin-degrading activity of cell-free extract", "setting": "mixed soil culture", "value": 0.49, "unit": "U/g"},
      {"measurement": "nitroglycerin-degrading activity", "setting": "Escherichia coli DH5α [3]; 4 mM TBHQ", "value": "undetectable levels"},
      {"measurement": "course of nitroglycerin-degrading activity with increasing inducer concentration", "setting": "Escherichia coli DH5α [3]; 24 h", "value": "rise and fall in activity as concentrations increased"},
      {"measurement": "concentration at which nitroglycerin-degrading activity peaked", "setting": "Escherichia coli DH5α [3]; TBHQ 0.5, 1, 2 and 4 mM", "value": 2, "unit": "mM"}
    ]},
    {"smiles": "COC(=O)/C=C\\C(=O)OC", "values": [
      {"measurement": "Fold-Induction relative to the control", "setting": "mixed soil culture", "value": 1.4, "unit": "fold"},
      {"measurement": "nitroglycerin-degrading activity of cell-free extract", "setting": "mixed soil culture", "value": 0.82, "unit": "U/g"},
      {"measurement": "course of nitroglycerin-degrading activity with increasing inducer concentration", "setting": "Escherichia coli DH5α [3]; 24 h", "value": "increase in nitroglycerin-degrading activity with increasing concentrations"}
    ]},
    {"smiles": "O=[N+]([O-])OCC(CO[N+](=O)[O-])O[N+](=O)[O-]", "values": [
      {"measurement": "Fold-Induction relative to the control", "setting": "[1]", "value": "did not illicit any significant response"},
      {"measurement": "Fold-Induction relative to the control", "setting": "Pseudomonas sp. BB13", "value": 0.68, "unit": "fold"},
      {"measurement": "nitroglycerin-degrading activity of cell-free extract", "setting": "Pseudomonas sp. BB13", "value": "<0.10", "unit": "U/g"},
      {"measurement": "Fold-Induction relative to the control", "setting": "Escherichia coli DH5α [2]", "value": "did not illicit any significant response"}
    ]},
    {"smiles": "CC1=CC(=O)c2ccccc2C1=O", "values": [
      {"measurement": "Fold-Induction relative to the control", "setting": "mixed soil culture", "value": 2.0, "unit": "fold"},
      {"measurement": "nitroglycerin-degrading activity of cell-free extract", "setting": "mixed soil culture", "value": 1.2, "unit": "U/g"},
      {"measurement": "Fold-Induction relative to the control", "setting": "[1]", "value": 1.7, "unit": "fold"},
      {"measurement": "nitroglycerin-degrading activity of cell-free extract", "setting": "[1]", "value": 1.0, "unit": "U/g"},
      {"measurement": "Fold-Induction relative to the control", "setting": "Pseudomonas sp. BB13", "value": 25, "unit": "fold"},
      {"measurement": "nitroglycerin-degrading activity of cell-free extract", "setting": "Pseudomonas sp. BB13", "value": 2.5, "unit": "U/g"},
      {"measurement": "Fold-Induction relative to the control", "setting": "Escherichia coli DH5α [2]", "value": 3.5, "unit": "fold"},
      {"measurement": "nitroglycerin-degrading activity of cell-free extract", "setting": "Escherichia coli DH5α [2]", "value": 11, "unit": "U/g"}
    ]},
    {"smiles": "CCOC(=O)CC(=O)OCC", "values": [
      {"measurement": "Fold-Induction relative to the control", "setting": "mixed soil culture", "value": 0.81, "unit": "fold"},
      {"measurement": "nitroglycerin-degrading activity of cell-free extract", "setting": "mixed soil culture", "value": 0.49, "unit": "U/g"},
      {"measurement": "nitroglycerin-degrading activity of cell-free extract", "setting": "[1]", "value": 0.60, "unit": "U/g"},
      {"measurement": "nitroglycerin-degrading activity of cell-free extract", "setting": "Pseudomonas sp. BB13", "value": 0.11, "unit": "U/g"},
      {"measurement": "nitroglycerin-degrading activity of cell-free extract", "setting": "Escherichia coli DH5α [2]", "value": 4.5, "unit": "U/g"}
    ]}
  ]
}
